The list shows a part of the results, in another mix than the full data. Activity calls are given as the source filed them. Calls follow the shape of the dose curve; as a rule, active = well fitted activation curve with a large enough effect; inconclusive = small, poorly fitted or top-dose-only effect; inactive = flat fitted curve, though single readings scatter.
assay: qHTS Assay for Allosteric/Competitive Inhibitors of Caspase-1: Spectroscopic Profiling in AFC Spectral Region; settings: compound fluorescence, AFC spectral region (405/520 nm); at 57.5 µM (top of the series) unless noted; also: 0% is about no effect

Row | Structure (SMILES) | fluorescence increase
1 | COc1ccccc1OP(C)(=O)Nc1ccc(C)c(C)c1 (centres undefined) | inactive: -0.269%
2 | C(Cc1nn[nH]n1)c1nn[nH]n1 | inactive: 3.41% [at 11.5 µM]
3 | Cc1nc2ccc3ccccc3c2o1.O=[N+]([O-])c1cc([N+](=O)[O-])c(O)c([N+](=O)[O-])c1 | inactive: -1.53%
4 | [N-]=[N+]=NCC(O)CN=[N+]=[N-] (centres undefined) | inactive: 2.53% [at 11.5 µM]
5 | O=[N+]([O-])c1ccc(C[As](=O)(O)O)cc1 | inactive: -0.764% [at 11.5 µM]
6 | CP(=O)(Nc1ccccn1)Oc1ccccc1 (centres undefined) | inactive: -0.965%
7 | NCC[C@@H](N)CSP(=O)(O)O | inactive: 1.42% [at 11.5 µM]
8 | Cc1c2non([O-])c-2c(C)[n+](=O)[n+]1[O-] | inactive: 0.391%
9 | COc1ccccc1OP(C)(=O)Nc1c(C)n(C)n(-c2ccccc2)c1=O (centres undefined) | inactive: 4.13%
10 | OCCSCCO | inactive: 1.89%
11 | CP(=O)(Oc1ccccc1)N1CCOC1=O (centres undefined) | inactive: 2.84%
12 | CCc1nc2c(n1)c1c(non1O)c1c2no[n+]1[O-] | inactive: -2.13%
13 | N#[O+].[C-]#N.[C-]#N.[C-]#N.[C-]#N.[C-]#N.[Fe+2].[Na+].[Na+] | inactive: -0.72%
14 | O=C(CO)Nc1ccc([As](=O)(O)O)cc1 | inactive: 5.06% [at 11.5 µM]
15 | CN(C(=O)Cc1ccccc1)[C@@H]1CC[C@@]2(CCCO2)C[C@H]1N1CCCC1 | inactive: -2.94%
16 | CN(C)CCOC(=O)C(O)(c1ccccc1)C1CCCCC1 (centres undefined) | inactive: 0.511%
17 | [N-]=[N+]=Nc1ccc([As](=O)(O)O)cc1 | inactive: -0.842% [at 11.5 µM]
18 | Cc1cc([N+](=O)[O-])cc([N+](=O)[O-])c1O | inactive: -3.76%
19 | O=C(OC1CN2CCC1CC2)c1cccc(Cl)c1 (centres undefined) | inactive: 0.31%
20 | Cc1c([N+](=O)[O-])cccc1[N+](=O)[O-] | inactive: 0.431%
21 | Cc1ccc([N+](=O)[O-])c([N+](=O)[O-])c1 | inactive: -1.78%
22 | CCOP(C)(=S)SCC(=O)NC(C)(CC)C(=O)O (centres undefined) | inactive: 2.01%
23 | CCOP(=O)(CC)OCC | inactive: -0.662%

Row | Structure (SMILES) | fluorescence increase
24 | c1nnnn1CCn1cnnn1 | inactive: 0.0231%
25 | O=P(Nc1nccs1)(c1ccccc1)c1ccccc1 | inactive: 3.03%
26 | CCN(CCCl)Cc1ccccc1C | inactive: -2.39%
27 | Cc1ccccc1NP(C)(=O)Nc1ccccc1C | inactive: 0.145%
28 | C[C@@H](O)COc1ccc([As](=O)(O)O)cc1N | inactive: 4% [at 11.5 µM]
29 | [NH4+].[O-][Cl+3]([O-])([O-])[O-] | inactive: 0.105%
30 | NNC(NN)NN.n1nc(-c2nn[nH]n2)n[nH]1 | inactive: 2.57% [at 11.5 µM]
31 | CP(=O)(Nc1ccc2c(c1)OCCO2)Oc1ccccc1 (centres undefined) | inactive: 2.17%
32 | CN1CCC[C@H](OC(=O)C(c2ccccc2)c2ccccc2)C1 | inactive: 0.994% [at 11.5 µM]
33 | CP(=O)(Nc1ccccc1F)Oc1ccccc1 (centres undefined) | inactive: -1.31%
34 | O=P1(Nc2nc3ccc(Cl)cc3s2)COc2ccccc2O1 (centres undefined) | inactive: -0.412%
35 | CCC(C)(OO)OOC(C)(CC)OO (centres undefined) | inactive: 0.927%
36 | Cc1cccc([N+](=O)[O-])c1[N+](=O)[O-] | inactive: 0.734%
37 | COC(=O)c1cc2c(s1)N=C(c1ccccc1)N(C)P2(=O)N1CCOCC1 (centres undefined) | inactive: 0.139%
38 | O=[As](O)(O)c1ccc([As](=O)(O)O)cc1 | inactive: 1.7% [at 11.5 µM]
39 | CCOP1(=S)c2c(C)nn(CCC#N)c2N=C(c2ccccc2F)N1C (centres undefined) | inactive: 1.52%
40 | O=P(Nc1nccs1)(c1ccccc1)c1nc2ccccc2s1 (centres undefined) | inactive: 2.21%
41 | O=[N+]([O-])c1cccc([N+](=O)[O-])c1 | inactive: 0.461%
42 | CCOP1(=S)c2c(C)nn(CCC#N)c2N=C(c2ccc(F)cc2)N1C (centres undefined) | inactive: -1.45%
43 | Cc1ccc([N+](=O)[O-])cc1[N+](=O)[O-] | inactive: -0.0432%
44 | CN(C(=O)Cc1ccc(Cl)c(Cl)c1)[C@@H]1CC[C@@]2(CCCO2)C[C@H]1N1CCCC1 | inactive: -2.02%
45 | Cc1ccc(C)c(NP(C)(=O)Oc2ccccc2)c1 (centres undefined) | inactive: -1.17%
46 | O=C(CC(=O)c1ccccc1)O[C@H]1CN2CCC1CC2 | inactive: 0.587% [at 11.5 µM]

Row | Structure (SMILES) | fluorescence increase
47 | NS(=O)(=O)Cc1ccc([As](=O)(O)O)cc1 | inactive: 0.737% [at 11.5 µM]
48 | Clc1n[nH]nc1-c1nn[nH][15n]1 | inactive: -0.517%
49 | CN(CCCl)Cc1cc(Cl)c(NC2=NCCN2)c(Cl)c1 | inactive: -1.08%
50 | O=P1(Nc2ccccn2)COc2ccccc2OC1 | inactive: 1.1%
51 | Cc1nc2ccc3ccccc3c2s1.O=[N+]([O-])c1cc([N+](=O)[O-])c(O)c([N+](=O)[O-])c1 | inactive: -1.33%
52 | Cc1nn(-c2ccccc2)c2c1P(=O)(N1CCOCC1)N(C)C(c1ccccc1)=N2 (centres undefined) | inactive: -2.51%
53 | O=P1(Nc2ccc(Br)cn2)COc2ccccc2OC1 | inactive: 0.565%
54 | O=P1(Nc2ncccn2)COc2ccccc2OC1 | inactive: -2.85%
55 | N1=C(c2nnc(-c3nn[nH]n3)nn2)NNN1 | inactive: -2.28% [at 11.5 µM]
56 | CN(N=O)C(=N)N[N+](=O)[O-] | inactive: 0.722%
57 | CP(=S)(Nn1cnnc1)Oc1ccccc1 (centres undefined) | inactive: 2.72%
58 | O=C(O)[C@@H](O)c1ccc([As](=O)(O)O)cc1 | inactive: -2.19% [at 11.5 µM]
59 | CP(=O)(NC(=O)Nc1ccccc1)Oc1ccccc1 (centres undefined) | inactive: 1.3%
60 | O=C(COc1ccccc1)OC1CN2CCC1CC2 (centres undefined) | inactive: -0.768%
61 | COP1(=S)c2c(C)nn(CCC#N)c2N=C(c2ccc(F)cc2)N1C (centres undefined) | inactive: -1.07%
62 | CCOP(C)(=S)SCC(=O)NC(C)C(=O)O (centres undefined) | inactive: 0.453%
63 | NC(=O)Nc1cc([As](=O)(O)O)cc(I)c1O | inactive: -0.0887% [at 11.5 µM]
64 | O=C(OC1CN2CCC1CC2)C12CC3CC(CC(C3)C1)C2 (centres undefined) | inactive: 1.71%
65 | O=[N+]([O-])[O-].[NH4+] | inactive: 2.05%
66 | COc1ccccc1OP(C)(=O)Nc1ccc(C)cc1 (centres undefined) | inactive: 0.353%
67 | [N-]=[N+]=NCC(N)=O | inactive: -0.299% [at 11.5 µM]
68 | Cc1ccc(NP(C)(=O)Oc2ccccc2)c(C)c1 (centres undefined) | inactive: -1.5%
69 | O=[As]c1ccc(S(=O)(=O)NCCO)cc1 (centres undefined) | inactive: 0.727% [at 11.5 µM]

— PubChem BioAssay AID923 (National Center for Advancing Translational Sciences (NCATS), 2007)
